Amino acid sequences for entries named in this document (tags omitted). A change or cut given only in a name is not applied to a line headed by its entry.
UniProt P01210: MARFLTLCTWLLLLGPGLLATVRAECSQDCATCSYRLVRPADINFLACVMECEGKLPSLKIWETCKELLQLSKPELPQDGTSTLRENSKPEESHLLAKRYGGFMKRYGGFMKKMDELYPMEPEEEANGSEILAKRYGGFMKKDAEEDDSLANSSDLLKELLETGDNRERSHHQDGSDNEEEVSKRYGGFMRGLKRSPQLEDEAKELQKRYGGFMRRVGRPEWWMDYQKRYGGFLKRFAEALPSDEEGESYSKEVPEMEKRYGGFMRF

According to patent US7097988B1 (ADVANCED RESEARCH AND TECHNOLOGY INSTITUTE, dated 2006):

Experiments:
cloned rat μ receptor = cloned rat μ receptor (Rattus norvegicus, UniProt P33535, V245I); conditions: previously reported; cited from earlier work
[1] = target: rat μ opioid receptor (inhibition of adenylyl cyclase) (Rattus norvegicus, UniProt P33535, V245I); assay: Cyclic AMP assay in transfected CHO cells, naive or chronically morphine-treated
mouse kappa receptor = mouse kappa receptor (Mus musculus, UniProt P33534); conditions: cited from earlier work
[2] = target: T1, cloned human μ opioid receptor (Homo sapiens, UniProt P35372); assay: biochemical; format: binding
T1 construct: the cDNA containing the open reading frame of the receptor was cloned downstream of the human cytomegalovirus promoter in the mammalian expression vector pcDNA3; expressed in transfected cells; host or cells: COS-7 (transient)

[3] = target: T2, cloned human mu opioid receptor (human, UniProt P35372 1-400); assay: displacement of 1.3 nM [3H]DAMGO; membranes of COS-7 cells expressing the human µ receptor
T2 construct: Full-length receptor expressed from pcDNA3 in COS-7 cells (membranes) or from mRNA in Xenopus oocytes; also called human µ opioid receptor; human µ receptor

[4] = target: T2, cloned human mu opioid receptor; assay: inhibition of [3H]DAMGO binding; membranes of COS-7 cells expressing the human µ receptor
[5] = target: T2, cloned human mu opioid receptor; assay: inhibition of 2 nM [3H]DAMGO binding; membranes of COS-7 cells expressing the human µ receptor

## C[C@@H](NC(=O)[C@@H](N)Cc1ccc(O)cc1)C(=O)NCC(=O)N(C)[C@@H](Cc1ccccc1)C(=O)NCCO [DAMGO, [D-Ala^2, N-Me-Phe^4, Gly-ol^5]-enkephalin]
Cloned rat μ receptor
  Kd: 0.57 nM
[1]
  EC50: ~30 nM

## CCC(=O)C(CC(C)N(C)C)(c1ccccc1)c1ccccc1 (centres unmarked) [Methadone]
Mouse kappa receptor
  affinity for the mouse κ receptor (in words): little or no affinity

## CN1CC[C@@]23CCCC[C@@H]2[C@@H]1Cc1ccc(O)cc13 [dextrorphan]
[2]
  Ki: > 1000 nM

## YGGFM (peptide, UniProt P01210 100-104, looked up, mature) [Met-enkephalin]
[3]
  IC50: 4.1 nM
  Ki: 2.2 nM

## YGGFMTSEKSQTPLVTLFKNAIIKNAYKKGE (peptide, UniProt P01189 237-267, looked up, mature) [β-endorphin]
[4]
  Ki: 0.94 nM
[5]
  Ki: 0.94 nM
